Reference: US10376553B2, “Pharmaceutical composition for preventing and treating chronic obstructive lung disease containing, as active ingredient, Magnoliae flos extract, fraction, or active fraction thereof” (KOREA RESEARCH INSTITUTE OF BIOSCIENCE AND BIOTECHNOLOGY, priority 2015, dated 2019)

Tested on: H292 cells
Assay: Cytotoxicity (CCK-8 cell viability) of the compounds of Magnoliae flos in H292 cells
Type: cell-based, human
Conditions: 24 h, vs 0.2% DMSO control = 100%
Description: Then, 10 μl of the CCK-8 solution (Dojindo Laboratories, Japan) was mixed with 90 μl of the medium, and 100 μl thereof was added per well. After incubation for a minimum of 30 minutes to a maximum of 4 hours, the absorbance was measured at 570 nm. The cell viability was calculated according to the following Equation 2 with a negative control group treated with 0.2% DMSO as a reference of 100%.
Cell viability=(Compound treated OD 570 nm value)×100/(Negative control group OD 570 nm value) [Equation 2]

Structure (SMILES): COc1ccc([C@H]2OC[C@H]3[C@@H]2CO[C@@H]3c2ccc(OC)c(OC)c2)cc1OC [Compound S1, dimethylpinoresinol]
- Viability of H292 cells (%, average ± deviation) (20 μM): 114.08 ± 0.57%

Structure (SMILES): COc1cc([C@H]2OC[C@H]3[C@@H]2CO[C@@H]3c2cc(OC)c(OC)c(OC)c2)cc(OC)c1OC [Compound S3, dimethylliroresinol]
- Viability of H292 cells (%, average ± deviation) (5 μM): 102.75 ± 2.89%
- Viability of H292 cells (%, average ± deviation) (10 μM): 101.84 ± 3.42%
- Viability of H292 cells (%, average ± deviation) (20 μM): 102.12 ± 2.44%

Structure (SMILES): COc1cc([C@H]2OC[C@H]3[C@@H]2CO[C@@H]3c2ccc3c(c2)OCO3)cc(OC)c1OC [Compound S6, aschantin]
- Viability of H292 cells (%, average ± deviation) (2.5 μM): 102.36 ± 2.79%
- Viability of H292 cells (%, average ± deviation) (5 μM): 104.19 ± 1.21%
- Viability of H292 cells (%, average ± deviation) (10 μM): 101.90 ± 1.26%
- Viability of H292 cells (%, average ± deviation) (20 μM): 104.19 ± 1.12%
